Chains of the proteins cited; added tags and fusions are not shown.
UniProt P00750, whole entry: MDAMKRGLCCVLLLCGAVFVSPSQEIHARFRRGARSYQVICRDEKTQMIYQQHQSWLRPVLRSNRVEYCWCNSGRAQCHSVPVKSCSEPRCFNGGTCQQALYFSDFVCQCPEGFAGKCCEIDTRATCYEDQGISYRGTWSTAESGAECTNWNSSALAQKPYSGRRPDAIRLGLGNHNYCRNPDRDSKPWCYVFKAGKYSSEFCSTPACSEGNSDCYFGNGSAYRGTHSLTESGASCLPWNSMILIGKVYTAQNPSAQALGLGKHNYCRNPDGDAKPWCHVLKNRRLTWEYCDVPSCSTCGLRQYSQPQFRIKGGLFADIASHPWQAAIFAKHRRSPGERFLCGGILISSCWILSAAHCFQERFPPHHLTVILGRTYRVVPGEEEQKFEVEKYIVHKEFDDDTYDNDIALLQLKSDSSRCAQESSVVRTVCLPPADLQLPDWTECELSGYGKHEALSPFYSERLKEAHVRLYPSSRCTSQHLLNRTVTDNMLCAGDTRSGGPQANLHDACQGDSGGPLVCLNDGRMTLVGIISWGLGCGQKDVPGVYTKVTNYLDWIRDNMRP

According to BindingDB's records for patent US10118930 (Bayer Pharma Aktiengesellschaft, 2018):

Target: Tissue-type plasminogen activator (Homo sapiens, UniProt P00750)
Test: The clot-lysis test system configures the kinetics of clot formation and degradation in vitro and allows quantifying modulation of the process by selected test compounds.The test compounds were dissolved in 1% acetic acid and further complemented with an equal volume of DMSO. The resulting stock solutions were serially diluted in 0.5% acetic acid/50% DMSO. 1 μL aliquots of these solutions were placed into 384 well microplates (Greiner, black, transparent bottom), followed by 30 μL of diluted human citrated plasma (platelet-poor, final concentration: 5%; supplemented with fibrinogen, final concentration: 3 μM; dilution buffer: 20 mM HEPES, 150 mM NaCl, 0.01% Brij (pH 7)). The reactions were started by addition of 20 μL of CaCl2 (final concentration: 10 mM), and tPA (tissue plasminogen activator, final concentration: 0.2 nM) in dilution buffer, followed by an additional volume of 20 μL dilution buffer for improved mixing. The reactions were incubated at 37° C. […] IC50 values were determined by comparing the resulting time courses with the time course of a blank control reaction.

| IC50 [nM] | SMILES |
| --- | --- |
| 40 | O=c1cc(C2CCNCC2)n2ncc(-c3nc(-c4ccc(C(F)(F)F)cc4F)no3)c2[nH]1 [US10118930, Example 135] |
| 31 | O=c1cc(C2CCNCC2)n2ncc(-c3nc(-c4ccccc4C(F)(F)F)no3)c2[nH]1 [US10118930, Example 260] |
| 34 | CCCn1ccnc1CNC(=O)c1cnn2c(C3CCNCC3)cc(=O)[nH]c12 [US10118930, Example 84] |
| 30 | O=c1cc(C2CCNCC2)n2ncc(-c3noc(Cc4ccc(OC(F)(F)F)cc4)n3)c2[nH]1 [US10118930, Example 239] |
